One compound from patent US8252821B2, “Bioavailable capsule compositions of amorphous alpha-(N-sulfonamido)acetamide compound” (Bristol-Myers Squibb Company, priority 2009, dated 2012) can be followed below.

The data set can be described thus: Solubility of solubilized capsule formulations in FeSSIF at 37° C. The format is physicochemical. Particulars: FeSSIF pH 5.0, 37° C., 24 Hr.

Turning to `NC(=O)[C@@H](CCC(F)(F)F)N(Cc1ccc(-c2ncon2)cc1F)S(=O)(=O)c1ccc(Cl)cc1` [Active Compound, (2R)-2-[[(4-chlorophenyl)sulfonyl][[2-fluoro-4-(1,2,4-oxadiazol-3-yl)phenyl]methyl]amino]-5,5,5-trifluoropentanamide], the “ACTIVE COMPOUND Concentration” value was determined as 22.4 µg/mL.
